# Only a part is listed here, and it is no random draw. Some of these compounds have results that are not shown, active ones among them. Calls of active or inactive are those of the source. Calls come from the whole dose curve; as a rule, active = well fitted activation curve with a large enough effect; inconclusive = small, poorly fitted or top-dose-only effect; inactive = no such curve, though single readings can be large or run the other way.
# Assay: qHTS of alpha-syn Inhibitors; note: % of control where 0% means no effect; nearly all actives have a fitted effect of over 65% in size
# Conditions: Yeast expressing alpha-synuclein, BacTiter-Glo, 24 h; at 46.1 µM (top of the series)
# Excerpt: The goal of this project is to identify new chemical probes capable of reversing the toxicity associated with the Parkinson disease-related protein, alpha-synuclein. Compounds will be selected on their ability to restore growth in yeast cells expressing toxic levels of alpha-synuclein. These compounds will provide a complementary approach to deciphering the tangled mechanisms of toxicity and protection that we have uncovered through genome-wide genetic screens and are beginning to uncover in a large-scale proteomics analysis with mass spectroscopy. To this end, a miniaturized assay was developed to be screened against the Molecular Libraries Small Molecule Repository (MLSMR) to discover alpha-synuclein inhibitors. Please note that in the set-up this yeast-based assay compounds that inhibit as alpha-syn, have a read-out as activators. NIH Chemical Genomics Center [NCGC] NIH Molecular Libraries Probe Centers Network [MLPCN] MLPCN Grant: NS060957 Assay Submitter (PI): Susan Lindquist, Whitehead Institute/MIT
# Dispense 2.5 microL yeast galactose medium per 1536-well plate, pin compound, dispense 2.5 microL alpha-synuclein expressing yeast in galactose medium at OD600=0.02 (pregrown in raffinose medium to mid-log phase) per well, incubate for 24 hr at 30 deg C, and cell growth will be measured using 5 microL of Bactiter/Glo reagent to entire plate and read using Luminescence Protocol in ViewLux.
row,SMILES,growth rescue (activation)
1,COc1cccc(C(=O)NCC2(N3CCOCC3)CCCCC2)c1,inactive: -1.42%
2,O=C(OC1CN2CCC1CC2)C(CO)(c1ccccc1)c1ccccc1 (configuration not stated),inactive: -0.578%
3,O=C(OCCN1CCCC1)C(O)(c1ccccc1)c1ccccc1,inactive: -6.8%
4,CC(C)Oc1ccc(C(=O)NCC2(N(C)C)CCCCC2)cc1,inactive: 0.412%
5,CN(C)c1cccc(C(=O)NCC2(N(C)C)CCCCC2)c1,inactive: -2.51%
6,C=C(C)C#CC(O)(C(=O)OC1CCN(C)CC1)c1ccccc1 (configuration not stated),inactive: 2.09%
7,COc1ccc(Br)c(C(=O)NCC2(N3CCCCC3)CCCCC2)c1,inactive: 0.288%
8,COc1cc(C(=O)NCC2(N(C)C)CCCCC2)c([N+](=O)[O-])cc1OC,inactive: 0.119%
9,O=C(CBr)c1ccc(Cl)cc1,inactive: 1.86%
10,CN(C)C1(CNC(=O)c2ccc(Br)cc2)CCCCC1,inactive: -6.94%
11,O=C(NCC1(N2CCCCC2)CCCCC1)c1cccc(Cl)c1,inactive: 1.46%
12,COc1ccc(Cl)cc1C(=O)NCC1(N(C)C)CCCCC1,inactive: -2.46%
13,COc1cccc(C(=O)NCC2(N3CCCCC3)CCCCC2)c1,inactive: -5.83%
14,CCCCOc1ccccc1C(=O)NCC1(N(C)C)CCCCC1,inactive: 1.44%
15,CN(C)c1ccc(C(=O)NCC2(N(C)C)CCCCC2)cc1,inactive: -3.65%
16,CN(C)C1CCCC1OC(=O)C(O)(c1ccccc1)c1ccccc1 (configuration not stated),inactive: 0.832%

row,SMILES,growth rescue (activation)
1,Cc1ccccc1C(=O)NCC1(N2CCCCC2)CCCCC1,inactive: 5.46%
2,CN(C)C1(CNC(=O)c2ccccc2[N+](=O)[O-])CCCCC1,inactive: 22.2%
3,CCOc1cccc(C(=O)NCC2(N(C)C)CCCCC2)c1,inactive: -4.15%
4,COc1ccc(C(=O)NCC2(N(C)C)CCCCC2)cc1,inactive: 2.88%
5,O=C(NCC1(N2CCCCC2)CCCCC1)c1cccc(Br)c1,inactive: 1.45%
6,CCN1CCCC(OC(=O)C2(O)c3ccccc3C=Cc3ccccc32)C1 (configuration not stated),inactive: 0.159%
7,Cc1cc(C(=O)NCC2(N3CCCCC3)CCCCC2)ccc1[N+](=O)[O-],inactive: -2.02%
8,O=C(NCC1(N2CCCCC2)CCCCC1)c1cc(F)c(F)cc1Cl,inactive: 1.12%
9,C=CCN1CCN(CCOC(=O)C(O)(c2ccccc2)c2ccccc2)CC1,inactive: -1.45%
10,CN1[C@@H]2CC[C@H]1CC(OC(=O)C(O)(c1ccccc1)c1ccccc1)C2 (some centres not stated),inactive: -1.07%
11,O=C(NCC1(N2CCCCC2)CCCCC1)c1cc([N+](=O)[O-])ccc1Cl,inactive: 5.03%
12,Cc1ccc(C(=O)NCC2(N3CCCCC3)CCCCC2)cc1,inactive: -0.357%
13,CN(C)C1(CNC(=O)c2ccccc2F)CCCCC1,inactive: 1.85%
14,COc1cc(SC)ccc1C(=O)NCC1(N(C)C)CCCCC1,inactive: 0.374%
15,CCN(CC)CC(C)C(C)OC(=O)C(O)(c1ccccc1)c1ccccc1 (configuration not stated),inactive: -6.68%
16,CC(C)N1C(=O)CC2(CCN(CCOC(=O)C(O)(c3ccccc3)c3ccccc3)CC2)C1=O,inactive: 2.92%

# — PubChem BioAssay AID652106 (National Center for Advancing Translational Sciences (NCATS), 2013)
